The values below come from ChEMBL document CHEMBL4402598, “Design and Synthesis of Bitopic 2-Phenylcyclopropylmethylamine (PCPMA) Derivatives as Selective Dopamine D3 Receptor Ligands” (J Med Chem, 2020).

Amino acid sequences for entries named in this document (tags omitted). A change or cut given only in a name is not applied to a line headed by its entry.
UniProt P28335: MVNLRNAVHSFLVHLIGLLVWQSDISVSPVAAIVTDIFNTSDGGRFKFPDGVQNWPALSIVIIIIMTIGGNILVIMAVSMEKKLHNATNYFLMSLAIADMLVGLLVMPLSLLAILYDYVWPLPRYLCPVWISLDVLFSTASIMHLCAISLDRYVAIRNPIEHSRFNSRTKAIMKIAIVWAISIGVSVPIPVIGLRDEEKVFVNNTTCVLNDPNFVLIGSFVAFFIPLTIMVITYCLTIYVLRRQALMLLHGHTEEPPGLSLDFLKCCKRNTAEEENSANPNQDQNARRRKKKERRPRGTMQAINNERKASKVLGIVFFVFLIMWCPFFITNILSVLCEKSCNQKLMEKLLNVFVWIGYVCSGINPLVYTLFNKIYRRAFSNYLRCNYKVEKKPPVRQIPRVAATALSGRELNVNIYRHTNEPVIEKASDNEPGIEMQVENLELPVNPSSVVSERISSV

The Emax is the greatest response seen or fitted, relative to the assay's reference.

This test concerns the target 5-hydroxytryptamine receptor 2C (Homo sapiens, UniProt P28335). Kind of test: Agonist activity at human 5HT2C receptor stably expressed in HEK293 cells co-expressing Gq assessed as induction of calcium mobilization measured at 1 sec interval for 60 secs by Fluo-4 calcium dye based FLIPR assay relative to 5-HT. In kind it is functional, cell-based. In general terms: Calcium assays in cells follow changes in intracellular calcium, usually with a dye or a luminescent sensor.
`CCCN(CCCCNC(=O)c1ccc(-c2ccccn2)cc1)C[C@H]1C[C@@H]1c1cccc(Cl)c1Cl.Cl`: the Emax was 51.9%. As for `CCCN(CCCCNC(=O)c1ccc2ccccc2c1)C[C@H]1C[C@@H]1c1cccc(Cl)c1Cl.Cl`, the figure is 30.3%. Next, `CCCN(CCCCNC(=O)c1cc2ccccc2[nH]1)C[C@H]1C[C@@H]1c1cccc(Cl)c1Cl.Cl`: 44.2%.
